The conditions of the data set: 37° C., even with the addition of 15% ethanol.

Here are results for one substance from patent US4801534A, “Water soluble zanthylium derivative substrates” (Coulter Electronics, Inc., priority 1987, dated 1989).

“(Cbz-L-Pro-Arg)2 -Rhodamine 110 [(Cbz-Pro-Arg)2 -Rhodamine 110, reference compound]”: the solubility entry was “up to 120 micromolar”.
